From patent US8853236B2, “Formulations containing clopidogrel and sulfoalkyl ether cyclodextrin and methods of use” (Cydex Pharmaceuticals, Inc., priority 2007, dated 2014)

Key:
[1] = cited from earlier work
[2] = FIG. 6b, 25° C., water, pH 5.5
[3] = Solubility of clopidogrel bisulfate with surfactant, with or without Captisol (Example 14); settings: thermodynamic from solid, Concentration of Clopidogrel Solubilized, pH about 5.5

In the case of `COC(=O)[C@H](c1ccccc1Cl)N1CCc2sccc2C1.O=S(=O)(O)O` [clopidogrel bisulfate, methyl (+)-(S)-α-(2-chlorophenyl)-6,7-dihydrothieno[3,2-c]pyridine-5(4H)-acetate sulfate (1:1)], the solubility in water ([1]; neutral pH) is given as “practically insoluble”, the solubility in water ([1]; pH 1) is given as “freely soluble” and the solubility (physchem; pH 3, aqueous buffer) is given as about 5000 µg/mL. The solubility (physchem; pH 3.5, aqueous buffer) was about 1790 µg/mL, the solubility (physchem; pH 4, aqueous buffer) was about 279 µg/mL and the solubility (physchem; pH 4.5, aqueous buffer) was about 171 µg/mL. The solubility (physchem; pH 5.12, aqueous buffer) was about 83 µg/mL, the solubility (physchem; pH 6.6, aqueous buffer) was about 82 µg/mL and the “slope of the phase solubility line (clopidogrel M versus SAE-CD M)” value [2] was “about 0.15”. For the same compound, the solubility ([3]; 20 °C, pH 5.5, aqueous buffer, Table 14b: Captisol 0, Tween 80 0 (0%)) was 0.3 mM, the solubility ([3]; 20 °C, pH 5.5, aqueous buffer, Table 14d: Captisol 0, Solutol 0 (0%)) was 15 mM and the solubility ([3]; 20 °C, pH 5.5, aqueous with cosolvent or surfactant or cyclodextrin, Captisol 0, Solutol 10 mg/ml (1%)) was 8000 µM and 2500 µg/mL. For the same compound, the solubility ([3]; 20 °C, pH 5.5, aqueous with cosolvent or surfactant or cyclodextrin, Captisol 0, Solutol 25 mg/ml (2.5%)) was 29 mM, the solubility ([3]; 20 °C, pH 5.5, aqueous with cosolvent or surfactant or cyclodextrin, Captisol 0, Solutol 50 mg/ml (5%)) was 63 mM and the solubility ([3]; 20 °C, pH 5.5, aqueous with cosolvent or surfactant or cyclodextrin, Captisol 0, Solutol 100 mg/ml (10%)) was 95 mM. For the same compound, the solubility ([3]; 20 °C, pH 5.5, aqueous with cosolvent or surfactant or cyclodextrin, Captisol 0, Tween 80 0.00076 M (0.1%)) was 5 mM, the solubility ([3]; 20 °C, pH 5.5, aqueous with cosolvent or surfactant or cyclodextrin, Captisol 0, Tween 80 0.004 M (0.5%)) was 47 mM and the solubility ([3]; 20 °C, pH 5.5, aqueous with cosolvent or surfactant or cyclodextrin, Captisol 0, Tween 80 0.008 M (1%)) was 56 mM. For the same compound, the solubility ([3]; 20 °C, pH 5.5, aqueous with cosolvent or surfactant or cyclodextrin, Captisol 0, Tween 80 0.038 M (5%)) was 124 mM, the solubility ([3]; 20 °C, pH 5.5, aqueous with cosolvent or surfactant or cyclodextrin, Captisol 0, Tween 80 0.076 M (10%)) was 101 mM and the solubility ([3]; 20 °C, pH 5.5, aqueous with cosolvent or surfactant or cyclodextrin, Captisol 0, Tween 80 […] (2%)) was 50 mM. It also gave a solubility ([3]; 20 °C, pH 5.5, aqueous with cosolvent or surfactant or cyclodextrin, Captisol 0.92 M (20% w/v), Solutol 10 mg/ml (1%)) of 21 mM, a solubility ([3]; 20 °C, pH 5.5, aqueous with cosolvent or surfactant or cyclodextrin, Captisol 0.92 M (20% w/v), Solutol 25 mg/ml (2.5%)) of 43 mM and a solubility ([3]; 20 °C, pH 5.5, aqueous with cosolvent or surfactant or cyclodextrin, Captisol 0.92 M (20% w/v), Solutol 50 mg/ml (5%)) of 67 mM. It also gave a solubility ([3]; 20 °C, pH 5.5, aqueous with cosolvent or surfactant or cyclodextrin, Captisol 0.92 M (20% w/v), Solutol 100 mg/ml (10%)) of 71 mM, a solubility ([3]; 20 °C, pH 5.5, aqueous with cosolvent or surfactant or cyclodextrin, Captisol 0.92 M (20% w/v), Tween 80 0.00076 M (0.1%)) of 7 mM and a solubility ([3]; 20 °C, pH 5.5, aqueous with cosolvent or surfactant or cyclodextrin, Captisol 0.92 M (20% w/v), Tween 80 0.004 M (0.5%)) of 23 mM. It also gave a solubility ([3]; 20 °C, pH 5.5, aqueous with cosolvent or surfactant or cyclodextrin, Captisol 0.92 M (20% w/v), Tween 80 0.008 M (1%)) of 56 mM, a solubility ([3]; 20 °C, pH 5.5, aqueous with cosolvent or surfactant or cyclodextrin, Captisol 0.92 M (20% w/v), Tween 80 0.038 M (5%)) of 78 mM and a solubility ([3]; 20 °C, pH 5.5, aqueous with cosolvent or surfactant or cyclodextrin, Captisol 0.92 M (20% w/v), Tween 80 0.076 M (10%)) of 29 mM. For the same compound, the solubility ([3]; 20 °C, pH 5.5, aqueous with cosolvent or surfactant or cyclodextrin, Captisol 0.92 M (20% w/v), Tween 80 […] (2%)) was 64 mM, the solubility ([3]; 20 °C, pH 5.5, aqueous with cosolvent or surfactant or cyclodextrin, Table 14a: Captisol 0.92 M (20% w/v), Tween 80 0 (0%)) was 15 mM and the solubility ([3]; 20 °C, pH 5.5, aqueous with cosolvent or surfactant or cyclodextrin, Table 14c: Captisol 0.92 M (20% w/v), Solutol 0 (0%)) was 15 mM. It also gave a solubility ([3]; 22.5 °C, pH 5.5, aqueous buffer, Table 14b: Captisol 0, Tween 80 0 (0%)) of 110 µg/mL, a solubility ([3]; 22.5 °C, pH 5.5, aqueous buffer, Table 14d: Captisol 0, Solutol 0 (0%)) of 4690 µg/mL and a solubility ([3]; 22.5 °C, pH 5.5, aqueous with cosolvent or surfactant or cyclodextrin, Captisol 0, Solutol 25 mg/ml (2.5%)) of 9340 µg/mL. The solubility ([3]; 22.5 °C, pH 5.5, aqueous with cosolvent or surfactant or cyclodextrin, Captisol 0, Solutol 50 mg/ml (5%)) was 20300 µg/mL, the solubility ([3]; 22.5 °C, pH 5.5, aqueous with cosolvent or surfactant or cyclodextrin, Captisol 0, Solutol 100 mg/ml (10%)) was 30700 µg/mL and the solubility ([3]; 22.5 °C, pH 5.5, aqueous with cosolvent or surfactant or cyclodextrin, Captisol 0, Tween 80 0.00076 M (0.1%)) was 1670 µg/mL. The solubility ([3]; 22.5 °C, pH 5.5, aqueous with cosolvent or surfactant or cyclodextrin, Captisol 0, Tween 80 0.004 M (0.5%)) was 8890 µg/mL, the solubility ([3]; 22.5 °C, pH 5.5, aqueous with cosolvent or surfactant or cyclodextrin, Captisol 0, Tween 80 0.008 M (1%)) was 15200 µg/mL and the solubility ([3]; 22.5 °C, pH 5.5, aqueous with cosolvent or surfactant or cyclodextrin, Captisol 0, Tween 80 0.038 M (5%)) was 39900 µg/mL. For the same compound, the solubility ([3]; 22.5 °C, pH 5.5, aqueous with cosolvent or surfactant or cyclodextrin, Captisol 0, Tween 80 0.076 M (10%)) was 32600 µg/mL, the solubility ([3]; 22.5 °C, pH 5.5, aqueous with cosolvent or surfactant or cyclodextrin, Captisol 0, Tween 80 […] (2%)) was 16000 µg/mL and the solubility ([3]; 22.5 °C, pH 5.5, aqueous with cosolvent or surfactant or cyclodextrin, Captisol 0.92 M (20% w/v), Solutol 10 mg/ml (1%)) was 8900 µg/mL. It also gave a solubility ([3]; 22.5 °C, pH 5.5, aqueous with cosolvent or surfactant or cyclodextrin, Captisol 0.92 M (20% w/v), Solutol 25 mg/ml (2.5%)) of 17600 µg/mL, a solubility ([3]; 22.5 °C, pH 5.5, aqueous with cosolvent or surfactant or cyclodextrin, Captisol 0.92 M (20% w/v), Solutol 50 mg/ml (5%)) of 28000 µg/mL and a solubility ([3]; 22.5 °C, pH 5.5, aqueous with cosolvent or surfactant or cyclodextrin, Captisol 0.92 M (20% w/v), Solutol 100 mg/ml (10%)) of 29800 µg/mL. The solubility ([3]; 22.5 °C, pH 5.5, aqueous with cosolvent or surfactant or cyclodextrin, Captisol 0.92 M (20% w/v), Tween 80 0.00076 M (0.1%)) was 2300 µg/mL, the solubility ([3]; 22.5 °C, pH 5.5, aqueous with cosolvent or surfactant or cyclodextrin, Captisol 0.92 M (20% w/v), Tween 80 0.004 M (0.5%)) was 7400 µg/mL and the solubility ([3]; 22.5 °C, pH 5.5, aqueous with cosolvent or surfactant or cyclodextrin, Captisol 0.92 M (20% w/v), Tween 80 0.008 M (1%)) was 18100 µg/mL. The solubility ([3]; 22.5 °C, pH 5.5, aqueous with cosolvent or surfactant or cyclodextrin, Captisol 0.92 M (20% w/v), Tween 80 0.038 M (5%)) was 25100 µg/mL, the solubility ([3]; 22.5 °C, pH 5.5, aqueous with cosolvent or surfactant or cyclodextrin, Captisol 0.92 M (20% w/v), Tween 80 0.076 M (10%)) was 9220 µg/mL and the solubility ([3]; 22.5 °C, pH 5.5, aqueous with cosolvent or surfactant or cyclodextrin, Captisol 0.92 M (20% w/v), Tween 80 […] (2%)) was 20800 µg/mL. For the same compound, the solubility ([3]; 22.5 °C, pH 5.5, aqueous with cosolvent or surfactant or cyclodextrin, Table 14a: Captisol 0.92 M (20% w/v), Tween 80 0 (0%)) was 4690 µg/mL and the solubility ([3]; 22.5 °C, pH 5.5, aqueous with cosolvent or surfactant or cyclodextrin, Table 14c: Captisol 0.92 M (20% w/v), Solutol 0 (0%)) was 4690 µg/mL.

Values joined by “and” are separate entries in the source; they are usually repeats but may differ in a detail not shown here. Equal entries are not always repeated. Where two headings read alike, the source gives them in different places.
